Laboratory results: publication PMC9637222, “Autoinducer-2 and bile salts induce c-di-GMP synthesis to repress the T3SS via a T3SS chaperone” (Nature Communications, 2022)
“And” between values parts separate entries of the source, which are not always exact repeats. Identical values can stand only once.

Assays:
[1] = test system: promoters of sopB, sopE2, and the sicAsipBCDA operon; assay: Promoter-lacZ fusion β-galactosidase assay; conditions: 1 μM; for β-Galactosidase (Miller units): strain WT, Fig. 4k; for Promoter activities of sopB, sopE2, and sicAsipBCDA (in words): wild-type strain
[2] = test system: T1, InvF/SicA complex with promoters of sopB, sopE2, and the sicAsipBCDA operon; assay: EMSA: InvF/SicA binding to target promoters in presence of nucleotides; set-up: species or system S. Typhimurium; conditions: c-di-AMP or cGMP at dose of the highest level of c-di-GMP
T1 construct: His6 (N, cleaved yes); made in house; host or cells: E. coli BL21(DE3) (pET28a-sicA, pET28a-invF)

[3] = target: T2, WP_034494714-LBD (Q208Y/E237D) (Buttiauxella agrestis, UniProt A0A085GF42, E237D/Q208Y); assay: ITC: DPD/AI-2 binding to WP_034494714-LBD double mutant; conditions: individual replicates, Supplementary Figure 7e
T2 sequence (A0A085GF42 27-302 Q208Y/E237D): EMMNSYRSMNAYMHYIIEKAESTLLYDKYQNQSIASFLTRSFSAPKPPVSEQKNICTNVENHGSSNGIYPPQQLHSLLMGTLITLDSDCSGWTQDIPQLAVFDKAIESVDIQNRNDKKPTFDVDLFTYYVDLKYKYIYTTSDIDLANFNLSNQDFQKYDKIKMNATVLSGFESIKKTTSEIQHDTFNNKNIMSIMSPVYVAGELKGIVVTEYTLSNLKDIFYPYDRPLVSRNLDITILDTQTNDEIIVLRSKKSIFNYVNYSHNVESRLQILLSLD

In the case of `C[C@H](CCC(=O)NCCS(=O)(=O)O)[C@H]1CC[C@H]2[C@@H]3CC[C@@H]4C[C@H](O)CC[C@]4(C)[C@H]3C[C@H](O)[C@]12C` [taurodeoxycholate], the “β-Galactosidase (Miller units)” value ([1]; PsicAsipBCDA) is reported as 336.34 Miller units and 368.76 Miller units and 353.92 Miller units, the “β-Galactosidase (Miller units)” value ([1]; PsopB) is reported as 144.02 Miller units and 170.31 Miller units and 127.03 Miller units and the “β-Galactosidase (Miller units)” value ([1]; PsopE2) is reported as 179.70 Miller units and 209.40 Miller units and 177.92 Miller units. For the same compound, the “Promoter activities of sopB, sopE2, and sicAsipBCDA (in words)” value [1] was “strongly repressed”.

For `Nc1nc2c(ncn2[C@@H]2O[C@@H]3COP(=O)(O)O[C@H]3[C@H]2O)c(=O)[nH]1` [cGMP], the “Effect on formation of InvF/SicA-DNA complexes (in words)” value [2] was “did not result in an observable difference”.

In the case of `Nc1nc2c(ncn2C2OC3COP(=O)(O)OC4C(COP(=O)(O)OC3C2O)OC(n2cnc3c(=O)[nH]c(N)nc32)C4O)c(=O)[nH]1` (stereo not shown) [c-di-GMP, Cyclic di-GMP], the “Effect on formation of InvF/SicA-DNA complexes (in words)” value [2] is reported as “reduced or even abrogated”.

`CC(=O)C(=O)[C@@H](O)CO` [DPD/AI-2, autoinducer-2] was tested, and the “n, DPD/AI-2 binding to WP_034494714-LBDQ208Y/E237D” value ([3]; ITC binding stoichiometry n) was 1.13 and 1.19 and 1.14 and the Kd ([3]; read-out: Kd, DPD/AI-2 binding to WP_034494714-LBDQ208Y/E237D, ITC) was 0.25 µM.

In the case of `C[C@H](CCC(=O)NCCS(=O)(=O)O)[C@H]1CC[C@H]2[C@@H]3[C@H](O)C[C@@H]4C[C@H](O)CC[C@]4(C)[C@H]3C[C@H](O)[C@]12C` [taurocholate], the “β-Galactosidase (Miller units)” value ([1]; PsicAsipBCDA) is reported as 422.71 Miller units and 461.77 Miller units and 405.55 Miller units, the “β-Galactosidase (Miller units)” value ([1]; PsopB) is reported as 196.10 Miller units and 210.53 Miller units and 189.80 Miller units and the “β-Galactosidase (Miller units)” value ([1]; PsopE2) is reported as 286.89 Miller units and 298.06 Miller units and 241.62 Miller units. For the same compound, the “Promoter activities of sopB, sopE2, and sicAsipBCDA (in words)” value [1] was “strongly repressed”.

In the case of `Nc1ncnc2c1ncn2[C@@H]1O[C@@H]2COP(=O)(O)O[C@H]3[C@@H](O)[C@H](n4cnc5c(N)ncnc54)O[C@@H]3COP(=O)(O)O[C@H]2[C@H]1O` [c-di-AMP], the “Effect on formation of InvF/SicA-DNA complexes (in words)” value [2] is reported as “did not result in an observable difference”.
